Measurements published in article PMC2775099 (Bioorganic & medicinal chemistry, 2009).

Target: rat nNOS (Rattus norvegicus, UniProt P29476)
Settings: amine in the chain replaced with ether or amide

- potency with nNOS relative to 1: significant loss in potency
SMILES: Cc1cc(N)nc(CC2CNCC2OCC(=O)NCCc2cccc(F)c2)c1 (stereo not shown) [compound 5, 2-(4-((6-Amino-4-methylpyridin-2-yl)-methyl)-pyrrolidin-3-yloxy)-N-(3-fluorophenethyl)-acetamide]
